Measured values reported in patent publication US10227295B2, “Selective histone deactylase 6 inhibitors” (H. LEE MOFFITT CANCER CENTER AND RESEARCH INSTITUTE, INC., priority 2013, dated 2019).

Test system: NRAS and BRAF mutant human melanoma cell lines
Test: Human melanoma cell proliferation MTS assay
Type: cell-based
Conditions: 24 h, panel of human melanoma cell lines

CCCCN(Cc1ccc(C(=O)NO)cc1)C(=O)Nc1ccccc1 [Compound 5g, 4-((1-butyl-3-phenylureido)methyl)-N-hydroxybenzamide]
concentration range inhibiting proliferation (in words): low micromolar range
